Assay results: patent US20090053168A1, “TREATMENTS OF B-CELL PROLIFERATIVE DISORDERS” (priority 2007, published 2009)

Experiments:
[1] = test system: MM.1S cells; assay: Anti-proliferation assay (ATPLite, 72 h), MM.1S
[2] = test system: H929 cells; assay: Anti-proliferation assay (ATPLite, 72 h), H929; assay type: cell-based
[3] = test system: RPMI-8226 cells; assay: Anti-proliferation assay (ATPLite, 72 h), RPMI-8226; assay type: cell-based

Compound	synergy score ([1]; in combination with ADAC, MM.1S)	Synergy score with dexamethasone, H929 [2]	Synergy score with dexamethasone, MM.1S [1]	Synergy score with dexamethasone, RPMI-8226 [3]
COc1cccc2c1C(=O)c1c(O)c3c(c(O)c1C2=O)C[C@@](O)(C(=O)CO)C[C@@H]3O[C@H]1C[C@H](N)[C@@H](O)[C@H](C)O1 [Epirubicin]	1.48			
COc1ccc([C@@H]2CNC(=O)C2)cc1OC1CCCC1 [R-(−)-Rolipram]		0.545	0.371	1.72
